Assay results reported in PubChem BioAssay AID588664 (The Scripps Research Institute Molecular Screening Center, 2011).
The entries are a selection whose mix differs from that of the whole data set. Some results for these compounds are left out of this collection, so the calls shown say nothing about other tests. Active and inactive are the calls of the source. Rule as the data show it: active = inhibition above about 5% (passing the limit was not always enough); inactive = the rest.

Chains of the proteins cited; added tags and fusions are not shown.
UniProt P00519, whole entry, looked up: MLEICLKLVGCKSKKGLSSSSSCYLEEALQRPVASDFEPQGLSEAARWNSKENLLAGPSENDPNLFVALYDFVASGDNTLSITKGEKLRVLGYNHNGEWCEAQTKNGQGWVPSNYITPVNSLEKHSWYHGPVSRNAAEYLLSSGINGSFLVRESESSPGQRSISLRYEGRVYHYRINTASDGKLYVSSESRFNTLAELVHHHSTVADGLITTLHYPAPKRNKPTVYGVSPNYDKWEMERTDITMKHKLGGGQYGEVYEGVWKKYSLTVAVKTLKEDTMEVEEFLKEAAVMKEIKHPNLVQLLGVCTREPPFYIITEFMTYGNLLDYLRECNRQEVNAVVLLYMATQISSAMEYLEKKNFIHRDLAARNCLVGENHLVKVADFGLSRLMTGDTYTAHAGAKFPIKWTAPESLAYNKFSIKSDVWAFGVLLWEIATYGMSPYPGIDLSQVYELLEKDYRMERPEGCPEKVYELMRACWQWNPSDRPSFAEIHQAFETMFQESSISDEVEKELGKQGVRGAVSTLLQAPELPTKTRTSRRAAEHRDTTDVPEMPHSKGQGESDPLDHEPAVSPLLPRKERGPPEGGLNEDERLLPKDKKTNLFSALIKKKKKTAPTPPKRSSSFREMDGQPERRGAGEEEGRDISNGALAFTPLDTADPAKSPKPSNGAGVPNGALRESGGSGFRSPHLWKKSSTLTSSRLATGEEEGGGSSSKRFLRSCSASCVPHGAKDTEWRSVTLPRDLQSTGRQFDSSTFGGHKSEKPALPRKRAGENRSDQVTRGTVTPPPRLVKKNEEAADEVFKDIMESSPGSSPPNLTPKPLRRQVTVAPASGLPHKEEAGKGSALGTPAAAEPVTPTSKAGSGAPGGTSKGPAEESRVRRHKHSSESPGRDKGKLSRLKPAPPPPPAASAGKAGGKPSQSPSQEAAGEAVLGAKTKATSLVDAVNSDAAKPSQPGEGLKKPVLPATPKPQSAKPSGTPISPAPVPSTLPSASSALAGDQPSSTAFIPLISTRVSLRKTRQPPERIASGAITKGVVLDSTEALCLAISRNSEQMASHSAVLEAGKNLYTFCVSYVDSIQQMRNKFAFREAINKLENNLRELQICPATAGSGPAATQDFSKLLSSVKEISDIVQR
UniProt Q13671, whole entry, looked up: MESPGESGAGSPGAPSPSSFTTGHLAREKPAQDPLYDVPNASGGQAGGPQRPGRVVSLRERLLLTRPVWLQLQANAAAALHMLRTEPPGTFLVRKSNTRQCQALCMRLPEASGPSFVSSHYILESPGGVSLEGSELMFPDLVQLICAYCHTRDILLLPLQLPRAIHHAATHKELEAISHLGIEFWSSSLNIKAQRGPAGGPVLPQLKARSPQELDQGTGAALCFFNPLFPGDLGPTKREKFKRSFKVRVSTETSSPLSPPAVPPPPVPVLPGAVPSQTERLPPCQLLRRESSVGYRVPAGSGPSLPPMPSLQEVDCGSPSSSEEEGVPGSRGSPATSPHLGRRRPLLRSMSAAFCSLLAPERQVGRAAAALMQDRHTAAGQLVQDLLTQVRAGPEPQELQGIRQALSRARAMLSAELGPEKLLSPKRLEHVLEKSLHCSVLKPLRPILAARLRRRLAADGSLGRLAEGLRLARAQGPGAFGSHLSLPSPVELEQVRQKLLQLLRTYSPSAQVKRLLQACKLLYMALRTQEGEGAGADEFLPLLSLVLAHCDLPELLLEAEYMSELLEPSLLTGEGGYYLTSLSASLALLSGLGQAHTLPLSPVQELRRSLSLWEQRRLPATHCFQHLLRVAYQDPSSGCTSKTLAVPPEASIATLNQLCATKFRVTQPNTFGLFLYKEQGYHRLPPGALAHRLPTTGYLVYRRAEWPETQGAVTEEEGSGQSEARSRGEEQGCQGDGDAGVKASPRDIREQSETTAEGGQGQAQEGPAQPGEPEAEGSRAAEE

These compounds were tested against Tyrosine-protein kinase ABL1 (Homo sapiens) + Ras and Rab interactor 1 (Homo sapiens) (UniProt P00519+Q13671) (assay: inhibitors of Rin1-Abl protein binding, primary screen, biochemical, TR-FRET (AID 588664)). Conditions: at 7.35 µM, active compounds read high.

Structure (SMILES) | inhibition
COc1ccc(Br)c(C(=O)NCC2(N3CCCCC3)CCCCC2)c1 | inactive: -6.08%
C=C(C)C#CC(O)(C(=O)OC1CCN(C)CC1)c1ccccc1 (stereo unspecified) | inactive: -1.16%
CN(C)c1cccc(C(=O)NCC2(N(C)C)CCCCC2)c1 | inactive: -0.69%
O=C(OCCN1CCCC1)C(O)(c1ccccc1)c1ccccc1 | inactive: 2.81%
CC(C)Oc1ccc(C(=O)NCC2(N(C)C)CCCCC2)cc1 | inactive: 4.82%
O=C(OC1CN2CCC1CC2)C(CO)(c1ccccc1)c1ccccc1 (stereo unspecified) | inactive: 0.86%
COc1ccc(Cl)cc1C(=O)NCC1(N(C)C)CCCCC1 | inactive: 3.07%
COc1cccc(C(=O)NCC2(N3CCCCC3)CCCCC2)c1 | inactive: -1.98%
O=C(NCC1(N2CCCCC2)CCCCC1)c1cccc(Cl)c1 | inactive: 0.13%
CN(C)C1(CNC(=O)c2ccc(Br)cc2)CCCCC1 | inactive: 0.11%
COc1cc(C(=O)NCC2(N(C)C)CCCCC2)c([N+](=O)[O-])cc1OC | inactive: 2.21%
O=C(NCC1(N2CCCCC2)CCCCC1)c1cc(F)c(F)cc1Cl | inactive: 0.9%
C=CCN1CCN(CCOC(=O)C(O)(c2ccccc2)c2ccccc2)CC1 | inactive: 1.26%
O=C(NCC1(N2CCCCC2)CCCCC1)c1cccc(Br)c1 | inactive: 2.35%
Cc1cc(C(=O)NCC2(N3CCCCC3)CCCCC2)ccc1[N+](=O)[O-] | inactive: -3.29%
CCN1CCCC(OC(=O)C2(O)c3ccccc3C=Cc3ccccc32)C1 (stereo unspecified) | inactive: -1.64%
COc1ccc(C(=O)NCC2(N(C)C)CCCCC2)cc1 | inactive: 3.07%
CN(C)C1CCCC1OC(=O)C(O)(c1ccccc1)c1ccccc1 (stereo unspecified) | inactive: -2.53%
CN(C)c1ccc(C(=O)NCC2(N(C)C)CCCCC2)cc1 | inactive: 0.44%
Cc1ccccc1C(=O)NCC1(N2CCCCC2)CCCCC1 | inactive: 2.11%
CC(C)N1C(=O)CC2(CCN(CCOC(=O)C(O)(c3ccccc3)c3ccccc3)CC2)C1=O | inactive: 0.7%
COc1cc(SC)ccc1C(=O)NCC1(N(C)C)CCCCC1 | inactive: -2.11%
CCN(CC)CC(C)C(C)OC(=O)C(O)(c1ccccc1)c1ccccc1 (stereo unspecified) | inactive: -3.33%
Cc1ccc(C(=O)NCC2(N3CCCCC3)CCCCC2)cc1 | inactive: 0.22%
O=C(NCC1(N2CCCCC2)CCCCC1)c1cc([N+](=O)[O-])ccc1Cl | inactive: -0.8%
CN1[C@@H]2CC[C@H]1CC(OC(=O)C(O)(c1ccccc1)c1ccccc1)C2 (stereo partly specified) | inactive: -1.3%
